Literature values in patent US20090178587A9, “Control of biofilms in industrial water systems” (priority 2001, published 2009).

Legend:
sessile bacteria = conditions: cited from earlier work
biofilm bacteria = conditions: 4-day period; chlorine 0-5 ppm residual, bromine 0-2 ppm residual; cited from earlier work

chlorine
biofilm counts after treatment (sessile bacteria; continuous chlorine residual of 0.4 ppm): about 102 bacteria/in^2
log reductions in sessile bacteria / biofilm counts (sessile bacteria; pH 9, H2O2 2-3 ppm continuous, glutaraldehyde or THPS 50 ppm, chlorine 0.4 ppm continuous residual): 5 log
log reductions of biofilm bacteria (biofilm bacteria): about 4 log
